Molecular target: T1, recombinant human CD25 (human, UniProt P01589 22-213, limits assumed)
T1 construct: also called IL-2 receptor subunit a
T1 sequence (looked up): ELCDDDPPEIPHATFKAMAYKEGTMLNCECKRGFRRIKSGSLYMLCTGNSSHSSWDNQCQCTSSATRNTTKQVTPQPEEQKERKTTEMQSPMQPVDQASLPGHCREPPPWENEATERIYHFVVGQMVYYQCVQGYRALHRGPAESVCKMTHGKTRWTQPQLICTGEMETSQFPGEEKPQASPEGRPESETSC
Assay: SPR, Biacore T200; human CD25 immobilized on CM5 chip
Procedure: The relative affinities of VP001, VP002, VP007 and VP008 for recombinant human CD3de (Delta epsilon fusion) and recombinant human CD25 were assessed by SPR on a Biacore T200 (GE Healthcare).

- Kd: 0.8 nM
B1: VP007 (Basiliximab with V-IGG4-B) (antibody, human IgG4 S228P, kappa, F234A L235A, V domains shown)
VH: QVQLQQSGTVLARPGASVKMSCKASGYSFTRYWMHWIKQRPGQGLEWIGAIYPGNSDTSYNQKFEGKAKLTAVTSASTAYMELSSLTHEDSAVYYCSRDYGYYFDFWGQGTTLTVSS
VL: QIVSTQSPAIMSASPGEKVTMTCSASSSRSYMQWYQQKPGTSPKRWIYDTSKLASGVPARFSGSGSGTSYSLTISSMEAEDAATYYCHQRSSYTFGGGTKLEIKR
notes: 4 chain IgG format (chVIT-101), IgG4 with S228P, F234A, L235A, K322A, F405L, R409K; also called chimeric Basiliximab; chVIT-101

Source: patent US20240383980A1 (VITRUVIAE, published 2024)
